Biological target: Human COX I (Homo sapiens, UniProt P23219)
Experiment: biochemical
Settings: read-out: Human COX I ID50
Protocol: Evaluation of COX I and COX II activity in vitro
The COX II inhibition activity of the compounds of this invention illustrated in the Examples was determined by the following methods.
a. Preparation of recombinant COX baculoviruses
A 2.0 kb fragment containing the coding region of either human or murine COX-I or human or murine COX-II was cloned into a BamH1 site of the baculovirus transfer vector pVL1393-(Invitrogen) to generate the baculovirus transfer vectors for COX-I and COX-II in a manner similar to the method of D. R. O'Reilly et al (Baculovirus Expression Vectors: A Laboratory Manual (1992)). Recombinant baculoviruses were isolated by transfecting 4 μg of baculovirus transfer vector DNA into SF9 insect cells (2×10e8) along with 200 ng of […] baculovirus plasmid DNA by the calcium phosphate method. See M. D. Summers and G. E. Smith, A Manual of Methods for Baculovirus Vectors and Insect Cell Culture Procedures, Texas Agric. Exp. Station Bull. 1555 (1987). Recombinant viruses were purified by three rounds of plaque purification and high titer (10E7-10E8 pfu/ml) stocks of virus were prepared. […]
COX activity was assayed as PGE2 -formed/μg protein/time using an ELISA to detect the prostaglandin released. […] The PGE2 formed was measured by standard ELISA technology (Cayman Chemical).

Sequences of proteins named here, by UniProt entry; tags and fusion partners are left off. Residues count along the entry.
UniProt P23219, 24-599: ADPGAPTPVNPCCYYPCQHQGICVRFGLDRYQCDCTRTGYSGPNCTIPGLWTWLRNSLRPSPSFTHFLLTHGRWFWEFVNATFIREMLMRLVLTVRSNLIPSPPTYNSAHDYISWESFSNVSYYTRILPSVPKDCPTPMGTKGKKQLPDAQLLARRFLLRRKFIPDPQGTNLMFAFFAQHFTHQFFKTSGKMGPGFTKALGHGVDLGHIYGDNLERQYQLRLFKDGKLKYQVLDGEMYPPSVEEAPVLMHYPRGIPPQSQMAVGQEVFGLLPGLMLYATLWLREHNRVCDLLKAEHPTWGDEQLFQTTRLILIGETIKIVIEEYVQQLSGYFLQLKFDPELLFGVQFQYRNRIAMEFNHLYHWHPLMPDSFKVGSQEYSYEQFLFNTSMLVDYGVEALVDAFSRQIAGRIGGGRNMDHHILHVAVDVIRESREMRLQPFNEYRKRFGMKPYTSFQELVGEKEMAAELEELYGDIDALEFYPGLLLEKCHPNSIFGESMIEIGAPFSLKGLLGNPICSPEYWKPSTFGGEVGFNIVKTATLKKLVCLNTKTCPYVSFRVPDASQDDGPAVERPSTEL

IC50: > 100 µM
Compound: CS(=O)(=O)c1ccc(-c2nn(CC(=O)O)c(C(F)(F)F)c2-c2ccc(F)cc2)cc1 [Example 10, [4-(4-Fluorophenyl)-3-[4-(methylsulfonyl)phenyl]-5-(trifluoromethyl)-1H-pyrazol-1-yl]acetic acid]
